Experiments:
[1] = tested on: hyperthermia-induced seizures in Scn1a^A1783V/WT mice; conditions: CBD 135 mg/kg alone; cited from earlier work
[2] = Plasma and brain pharmacokinetics after intraperitoneal administration; conditions: Scn1a^WT/WT mice
[3] = Double (CLB 5 mg/kg + VPA 75 mg/kg) ip
[4] = Triple (CLB 5 + VPA 75 + STP 100 mg/kg) ip
[5] = Double (CLB 5 mg/kg + VPA 75 mg/kg) ip, plasma
[6] = Triple (CLB 5 + VPA 75 + STP 100 mg/kg) ip, plasma

SMILES | Protection against hyperthermia-induced seizures [1] | Brain AUC0-inf [2, 3] | Brain Cmax [2, 3] | Cmax ([2]; Scn1a^WT/WT, mouse, in vivo, ip, Plasma Cmax, Double (CLB 5 mg/kg + VPA 75 mg/kg) ip, plasma) | Brain AUC0-inf [2, 4] | Brain Cmax [2, 4] | Brain t1/2 [2, 3] | Plasma AUC0-inf [2, 5] | Plasma Cmax [2, 5] | Plasma t1/2 [2, 5] | Brain t1/2 [2, 4] | Plasma AUC0-inf [2, 6] | Plasma Cmax [2, 6] | Plasma t1/2 [2, 6]
C=C(C)[C@@H]1CCC(C)=C[C@H]1c1c(O)cc(CCCCC)cc1O [CBD, cannabidiol] | failed to increase temperature thresholds | – | – | – | – | – | – | – | – | – | – | – | – | –
CN1C(=O)CC(=O)N(c2ccccc2)c2cc(Cl)ccc21 [CLB, clobazam, reference compound] | – | 0.637 µg·h/g | 0.76 µg/g | 540 ng/mL | 7.69 µg·h/g | 2.12 µg/g | – | – | – | – | – | – | – | –
O=C1CC(=O)N(c2ccccc2)c2cc(Cl)ccc2N1 [N-CLB, N-desmethylclobazam] | – | 5.13 µg·h/g | 0.788 µg/g | – | 16.3 µg·h/g | 1.22 µg/g | 3.3 h | 3.61 µg·h/mL | 0.567 µg/mL | 2.61 h | 11.2 h | 7.13 µg·h/mL | 0.88 µg/mL | 3.83 h
